Earlier results as cited in US20090117199A1, “Method of treatment of cancer” (priority 1998, published 2009).

System: melanoma
Details: IL therapy, prior reports; cited from earlier work

interleukin-2: IL interleukin-2 therapy
complete response (CR): 62%
objective response rate (ORR): 83%
partial response (PR): 21%
